Test results taken from PMC7559746 (Pharmaceutics, 2020).

Design: AUC0–12 h (CV%) geomean: unit not given beside the values
[1] = plasma, relative difference of geometric means
[2] = plasma, sorafenib monotherapy (day 1)

Substance: sorafenib-glucuronide
- bioequivalence, with probenecid vs sorafenib monotherapy (bioequivalent when 90% CI of ratio of geometric means is within 80% and 125%): bioequivalence
- RD sorafenib monotherapy vs. sorafenib + probenecid (90% CI), AUC0–12 h [1]: −5.5% (−18.0% to 8.9%)
- RD sorafenib monotherapy vs. sorafenib + probenecid (90% CI), Cmax [1]: −6.1% (−21.7% to 12.7%)
- RD sorafenib monotherapy vs. sorafenib + probenecid (90% CI), Ctrough [1]: −8.3% (−21.3% to 6.9%)
- Cmax (CV%) geomean [2]: 12,704 (51) μg/mL
- Ctrough (CV%) geomean [2]: 9159 (65) μg/mL
- AUC0–12 h (CV%) geomean (plasma, sorafenib monotherapy (day 1), dose-corrected, n = 16): 120,660 (55)
- increase of the ratio of sorafenib-glucuronide to sorafenib (sorafenib co-administered with probenecid vs monotherapy): 29%
- decrease of geometric mean plasma AUC0–12 h with concomitant probenecid (vs sorafenib alone, decrease): 5.5%
- decrease of plasma Cmax with concomitant probenecid (vs sorafenib alone, decrease): 6.1%
